From patent US20200246297A1, “LIQUID PHARMACEUTICAL FORMULATIONS OF TETRAIODOTHYRONINE” (priority 2015, published 2020)

What was measured:
[1] = 25° C.; cited from earlier work
[2] = Quantity of T4 microaggregates formed in water: HPLC T4 concentration before and after 0.2 μm microfiltration; assay type: physicochemical; details: T4 in glycerin, ethanol or glycerin/ethanol 80/20 w/w, diluted 100 times in water pH 6.5; T0
Experimental: To establish the formation of microaggregates of T4 in an aqueous medium a fine T4 powder is dissolved in 10 mL of water (HPW), pH 6.5, at the concentration of 150 μg/mL, and the mixture is left under stirring for 5 h in an inert atmosphere. […] 50 mL of each sample taken is microfiltered through a Millipore GSWP02500 membrane with a porosity of 0.2 μm. The concentration of T4 in the samples is then determined before and after microfiltration by HPLC (Beckman Coulter; Supelco Discovery Cyano column 100×2.1 mm, 5 μm, flow rate 0.2 mL/min; Å 225 nm; isocratic elution H2O/acetonitrile (80/20 w/w)+0.1% formic acid; inj. vol. 20 μL; temperature 35° C.; column pressure 130-170 Kg/cm^2; run time 25 min).
To establish whether the formation of T4 in an aqueous medium can be affected by pre-solubilisation in organic solvents compatible with pharmaceutical use, a fine T4 powder is dissolved in 10 mL of pharmaceutical grade PEG 200 or PEG 300 or PEG 400 or PEG 600 (polyethylene glycols which are liquid at room temperature, with an average degree of polymerisation of 4, 6, 8 and 12 monomer units respectively) at the concentration of 150 μg/mL, and left under stirring, under nitrogen, until the solution is completely clear. […] The concentration of T4 in the samples is then determined before and after microfiltration by HPLC, as reported in example 1. […]

- insoluble, non-bioavailable microaggregates formed [2]: 5-10 % of the dose
Substance: (2S)-2-amino-3-[4-(4-hydroxy-3,5-diiodo-oxyphenyloxy)-3,5-diiodophenyl]propanoic acid [T4]
- solubility of T4 (water) [1]: 0.105 µg/mL
